Source: patent publication US9174983B2, “Pyrroloquinoline quinone disodium salt crystal and method for producing the same” (MITSUBISHI GAS CHEMICAL COMPANY, INC., priority 2011, dated 2015)

Conditions: 30° C., a half day or more; absorbed water and turned to a form similar to the precursor crystal

## pyrroloquinoline quinone disodium crystal [Crystalline Form 2]
  stability of the crystal on standing: unstable
